Cyclic peptide permeability, from CycPeptMPDB

Data: CycPeptMPDB; original report Townsend et al. 2020, doi:10.26434/chemrxiv.13335941.v1.

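Lipid, pH, incubation time, direction and concentration are not recorded in the data file. Other peptides of the study may be missing here. Entries at the database's floor value (log10 P of -10) are not listed.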

PAMPA is the parallel artificial membrane permeability assay, which has no cells and reads passive diffusion. P is given in units of 10^-6 cm/s (from log10 values with two decimals); larger means faster passage.

- CC(C)C[C@@H]1NC(=O)[C@@H]2CCCN2C(=O)[C@H](CC(C)C)N(C)C(=O)[C@H](CC(C)C)NC(=O)C[C@H](Cc2ccccc2)NC(=O)[C@H]2CCCN2C(=O)[C@H](Cc2ccccc2)NC1=O: PAMPA 3.5 × 10^-6 cm/s
- CC(C)C[C@@H]1C(=O)N(Cc2ccccc2)CC(=O)N2CCC[C@@H]2C(=O)N(C)[C@H](CC(C)C)C(=O)N[C@@H](Cc2ccccc2)C(=O)N2CCC[C@@H]2C(=O)N[C@@H](Cc2ccccc2)CC(=O)N1C: PAMPA 1.9 × 10^-6 cm/s
- CC(C)C[C@@H]1NC(=O)[C@H](C)N(C)C(=O)[C@@H]2CCCN2C(=O)[C@H](Cc2ccccc2)NC(=O)CN(Cc2ccccc2)C(=O)[C@H]2CCCN2C(=O)[C@H](CC(C)C)N(C)C1=O: PAMPA 2.6 × 10^-6 cm/s
- CC(C)C[C@@H]1NC(=O)[C@@H]2CCCN2C(=O)[C@@H](CC(C)C)N(C)C(=O)[C@H](CC(C)C)N(C)C(=O)[C@@H](C)N(C)C(=O)[C@@H]2CCCN2C(=O)[C@H](Cc2ccccc2)NC1=O: PAMPA 1.3 × 10^-6 cm/s
- CC(C)C[C@@H]1C(=O)N[C@@H](Cc2ccccc2)C(=O)N2CCC[C@H]2C(=O)N[C@@H](C)C(=O)N(C)[C@@H](CC(C)C)C(=O)N(Cc2ccccc2)CC(=O)N2CCC[C@H]2C(=O)N1C: PAMPA 1.7 × 10^-6 cm/s
- CC(C)C[C@@H]1NC(=O)[C@@H](CC(C)C)N(C)C(=O)[C@H](C)NC(=O)[C@H](Cc2ccccc2)NC(=O)CN(Cc2ccccc2)C(=O)[C@H]2CCCN2C1=O: PAMPA 8.1 × 10^-6 cm/s
- CC(C)C[C@@H]1C(=O)N[C@@H](Cc2ccccc2)CC(=O)N2CCC[C@H]2C(=O)N[C@H](CC(C)C)C(=O)N[C@@H](Cc2ccccc2)C(=O)N2CCC[C@@H]2C(=O)N[C@@H](C)C(=O)N1C: PAMPA 0.46 × 10^-6 cm/s
- CC(C)C[C@@H]1NC(=O)[C@@H](C)N(C)C(=O)[C@@H]2CCCN2C(=O)[C@H](Cc2ccccc2)NC(=O)CN(Cc2ccccc2)C(=O)[C@H]2CCCN2C(=O)[C@H](CC(C)C)N(C)C1=O: PAMPA 1.9 × 10^-6 cm/s
- CCCN1CC(=O)N[C@H](CC(C)C)C(=O)N(C)[C@H](CC(C)C)C(=O)N2CCC[C@@H]2C(=O)N[C@H](CC(C)C)C(=O)N[C@@H](Cc2ccccc2)C(=O)N2CCC[C@@H]2C1=O: PAMPA 4.6 × 10^-6 cm/s
- CC(C)C[C@@H]1NC(=O)[C@@H]2CCCN2C(=O)[C@H](CC(C)C)NC(=O)[C@H](CC(C)C)N(C)C(=O)[C@@H](C)NC(=O)[C@H](Cc2ccccc2)NC1=O: PAMPA 0.62 × 10^-6 cm/s
- CC(C)C[C@@H]1NC(=O)[C@H]2CCCN2C(=O)[C@@H](CC(C)C)NC(=O)[C@@H](CC(C)C)NC(=O)[C@H](C)NC(=O)[C@@H]2CCCN2C(=O)[C@H](Cc2ccccc2)NC1=O: PAMPA 0.26 × 10^-6 cm/s
- CC(C)C[C@@H]1NC(=O)[C@@H](C)N(C)C(=O)[C@H]2CCCN2C(=O)[C@H](Cc2ccccc2)NC(=O)CN(Cc2ccccc2)C(=O)[C@@H]2CCCN2C(=O)C[C@H](Cc2ccccc2)NC1=O: PAMPA 2.1 × 10^-6 cm/s
- CCCN1CC(=O)N[C@H](CC(C)C)C(=O)N[C@@H](CC(C)C)C(=O)N2CCC[C@H]2C(=O)N(Cc2ccccc2)CC(=O)N[C@@H](Cc2ccccc2)C(=O)N2CCC[C@H]2C1=O: PAMPA 1.4 × 10^-6 cm/s
- CC(C)C[C@@H]1C(=O)N2CCC[C@@H]2C(=O)N[C@H](CC(C)C)C(=O)N[C@@H](Cc2ccccc2)C(=O)N2CCC[C@@H]2C(=O)N[C@@H](Cc2ccccc2)CC(=O)N[C@H](CC(C)C)C(=O)N1C: PAMPA 2.6 × 10^-6 cm/s

A selection of 2 entries from above:

| compound | PAMPA (10^-6 cm/s) |
|---|---|
| CC(C)C[C@@H]1NC(=O)[C@@H]2CCCN2C(=O)[C@H](CC(C)C)N(C)C(=O)[C@H](CC(C)C)NC(=O)C[C@H](Cc2ccccc2)NC(=O)[C@H]2CCCN2C(=O)[C@H](Cc2ccccc2)NC1=O | 3.5 |
| CCCN1CC(=O)N[C@H](CC(C)C)C(=O)N(C)[C@H](CC(C)C)C(=O)N2CCC[C@@H]2C(=O)N[C@H](CC(C)C)C(=O)N[C@@H](Cc2ccccc2)C(=O)N2CCC[C@@H]2C1=O | 4.6 |